Assay results: paper PMC3368506 (Journal of the American Chemical Society, 2012)

Sequences of proteins named here, by UniProt entry; tags and fusion partners are left off. Residues count along the entry.
UniProt P05067, 672-711 limits assumed: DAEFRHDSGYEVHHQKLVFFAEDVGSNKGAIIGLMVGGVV

Target: Aβ fibrils (Aβ40 peptide) (Homo sapiens, UniProt P05067)
Experiment: Fluorescence titration assay with Aβ fibrils
Format: binding

`Cc1ccc2c(c1)sc(-c1ccc(N(C)C)cc1)[n+]2C` [ThT, Thioflavin T] showed a Kd of 1170 nM.
